Drawing on US20090005395A1 (Solvay Pharmaceuticals, B.V., priority 2007, published 2009), this text covers IC50 and Kp for 1 compound.

Protein sequences, listed by entry. Tags and fused reporters are not part of them.
UniProt O00408, whole entry: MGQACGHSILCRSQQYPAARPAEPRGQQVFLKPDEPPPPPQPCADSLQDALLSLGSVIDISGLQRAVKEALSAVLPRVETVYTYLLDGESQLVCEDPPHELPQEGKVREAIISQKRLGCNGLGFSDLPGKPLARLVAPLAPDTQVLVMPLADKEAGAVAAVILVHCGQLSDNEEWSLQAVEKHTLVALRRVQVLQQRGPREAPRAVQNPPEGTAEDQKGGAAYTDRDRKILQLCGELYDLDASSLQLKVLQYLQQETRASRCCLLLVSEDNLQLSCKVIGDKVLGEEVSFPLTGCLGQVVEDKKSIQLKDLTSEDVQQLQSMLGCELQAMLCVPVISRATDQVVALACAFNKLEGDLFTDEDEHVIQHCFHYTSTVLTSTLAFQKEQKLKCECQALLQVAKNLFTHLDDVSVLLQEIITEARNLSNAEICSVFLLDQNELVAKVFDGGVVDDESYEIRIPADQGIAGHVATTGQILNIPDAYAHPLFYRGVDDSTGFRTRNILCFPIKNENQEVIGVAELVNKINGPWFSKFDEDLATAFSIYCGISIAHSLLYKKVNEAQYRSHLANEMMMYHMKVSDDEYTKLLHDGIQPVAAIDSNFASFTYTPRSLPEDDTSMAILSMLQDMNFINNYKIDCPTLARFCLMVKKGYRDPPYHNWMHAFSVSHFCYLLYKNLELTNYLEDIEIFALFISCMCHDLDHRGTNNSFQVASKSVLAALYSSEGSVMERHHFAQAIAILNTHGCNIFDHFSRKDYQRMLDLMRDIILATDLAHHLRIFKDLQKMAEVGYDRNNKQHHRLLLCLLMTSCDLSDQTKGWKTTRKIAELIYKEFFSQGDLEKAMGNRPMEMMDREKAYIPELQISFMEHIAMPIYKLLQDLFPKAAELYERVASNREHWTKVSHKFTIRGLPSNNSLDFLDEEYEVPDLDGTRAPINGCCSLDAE

Data set [1] has as its target PDE-II (Homo sapiens, UniProt O00408). Briefly: In vitro inhibition of phosphodiesterases (CEREP): PDE-II.
A short description of data set [2]: Plasma pharmacokinetics of sildenafil and its N-oxide. The following applies: male, NMRI, mouse, brain, mice, read-out: Brain/plasma ratio. The format is in vivo. Here is the method:
Liquid Chromatography-Tandem Mass Spectrometry (LC-MS/MS) was performed using a Sciex API4000 LC-MS/MS. […] Compound peak area was used for quantification. The calibration curves were fitted to the model y=A+Bx+Cx^2 (y is the peak area of the analyte, x is the nominal calibration level in ng/ml (plasma) or ng/g (brain), A is the intercept, B is the slope and C is the description of the curvature). 1/x^2 weighing was used. LC-MS/MS system performance was monitored using a reference solution injected at standard intervals. […] The Lower Limit Of Quantification (LLOQ) was established at 1.00 ng/ml and 5.00 ng/brain, for plasma and brain samples, respectively. Reversed phase HPLC was performed using gradient elution by a Hypersil BDS C18 100×4.6 mm 3 μm analytical column, with a temperature of 45° C. and a flow of 1.00 ml/min: […]

Read-outs that look alike come from different tables or passages of the source. Some results are limits rather than exact numbers.

For `CCCc1nn(C)c2c(=O)[nH]c(-c3cc(S(=O)(=O)N4CCN(C)CC4)ccc3OCC)nc12` [Sildenafil, 1-[4-ethoxy-3-(6,7-dihydro-1-methyl-7-oxo-3-propyl-1H-pyrazolo[4,3-d]pyrimidin-5-yl)phenyl-sulfonyl]-4-methylpiperazine, reference compound], the IC50 in data set [1] was > 10 µM. The Kp in data set [2] (iv, i.v. 1 mg/kg) turned out to be 0.4; in data set [2] (po, p.o. 10 mg/kg), 0.3.
